Experimental data taken from patent US20150073033A1, “BIOMARKERS FOR CANCER CHARACTERIZATION AND TREATMENT” (Board of Regents, The University of Texas System, priority 2011, published 2015).

Target: EGFR (Homo sapiens, UniProt P00533)
Test: EGF-induced EGFR phosphorylation, immunoblotting
Format: cell-based
Conditions: U87/EGFR cells; AG1478 1 μM 30 min before EGF 6 h

- EGF-induced phosphorylation of EGFR: blocked
SMILES: COc1cc2ncnc(Nc3cccc(Cl)c3)c2cc1OC [AG1478]
